Reference: patent publication US20210284618A1, “FURANOCHALCONES AS INHIBITORS OF CYP1A1, CYP1A2 AND CYP1B1 FOR CANCER CHEMOPREVENTION” (Council of Scientific & Industrial Research, priority 2016, published 2021)

Biological target: T1, CYP1B1 (Homo sapiens, UniProt Q16678)
T1 sequence (Q16678 1-543): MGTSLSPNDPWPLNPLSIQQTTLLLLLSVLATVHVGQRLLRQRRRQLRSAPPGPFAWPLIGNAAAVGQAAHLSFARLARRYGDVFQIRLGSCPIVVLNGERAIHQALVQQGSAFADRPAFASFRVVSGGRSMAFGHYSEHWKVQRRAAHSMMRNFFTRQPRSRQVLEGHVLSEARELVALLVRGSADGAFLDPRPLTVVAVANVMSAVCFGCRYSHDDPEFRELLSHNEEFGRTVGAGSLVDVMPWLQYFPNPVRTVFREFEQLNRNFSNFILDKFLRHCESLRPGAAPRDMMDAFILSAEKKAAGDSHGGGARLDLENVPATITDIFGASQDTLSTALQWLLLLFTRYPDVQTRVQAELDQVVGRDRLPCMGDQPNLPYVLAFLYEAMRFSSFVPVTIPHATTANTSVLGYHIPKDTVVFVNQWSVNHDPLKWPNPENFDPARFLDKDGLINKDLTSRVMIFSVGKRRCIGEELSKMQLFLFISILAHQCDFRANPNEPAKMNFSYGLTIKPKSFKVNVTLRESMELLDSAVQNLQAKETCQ
Test: CYP1B1 inhibition in live human cells (HEK293)
Assay type: cell-based

**Q.** For `O=c1cc(-c2ccccc2)oc2c1ccc1ccccc12` [Alpha-naphthoflavone, reference compound], which IC50 is on record?
**A.** The IC50 was > 10000 nM.
